Data reported in PubChem BioAssay AID493130 (Broad Institute, 2011).
This is a selection; strong and weak results do not stand in their true shares. Records with an inconclusive call do not appear. Calls of active or inactive are those of the source.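 Rule for the calls: active = signal-lowering compounds whose fitted half-maximal concentration is at most ten times their highest tested dose; inconclusive = flat fit between -30 and -70%, or poor fit; inactive = flat within 30%, signal rising, or potency beyond limit.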

Target: POS-1 (Caenorhabditis elegans) binding to mex-3 RNA
Experiment: inhibitors of POS-1/mex-3 RNA binding, dose response, counter-screen for MEX-5 RNA-binding inhibitor project, biochemical, fluorescence polarization, cherry-picked samples, set 2 (AID 493130);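 note: POS-1 as maltose binding protein fusion made in E. coli with FITC RNA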
Conditions: POS-1/mex-3 RNA fluorescence polarization, 1 h; at 10 µM (top of the series)

## Nc1cccc2c([As](=O)(O)O)cccc12
  activity change, negative = inhibition: inactive
